{"source": "paper PMC6738096", "about": "(British Journal of Cancer, 2019)", "conditions": "rats, oral doses ≤ 60 mg/kg", "data": [{"smiles": "CC(C)NC(=O)[C@H]1CC[C@@H](n2/c(=N/C(=O)c3ccc(F)cc3)[nH]c3ccc(CN4CCC(C(C)(C)O)CC4)cc32)CC1", "note": "[TSR-011]", "values": [{"measurement": "Effects in modified Irwin and respiratory safety study", "value": "did not exhibit any effects"}]}]}
